Screening results from PubChem BioAssay.
Only some compounds are listed: those with a hit (about 2.8% of all), similar ones and a draw of the others.
esBAF inh – blocks esBAF chromatin remodeling in mouse ES cells; Bmi1-luciferase knock-in reporter, 24 h; 100% = twice the neutral-well signal; reporter increase, % at 12.5 µM; 350,000 compounds, 2% hits; in the data active = activation above about 40%;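 note: 0% = median of the plate's neutral control wells and 100% = double that signal; a rise in the Bmi1 reporter signal indicates esBAF inhibition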
Wnt act – Wnt/beta-catenin pathway activation. activation, % at 9.35 µM. 300,000 compounds, 1.2% hits. Wnt/beta-catenin reporter cell assay, activator, plate reader; in the data active = activation above about 30%, passing the limit was not always enough;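 note: 0% = neutral control wells and 100% = positive control wells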
miR-122 sensor – miR-122 inhibition in Huh7 cells; AID 602342; Huh7 miR-122 Renilla luciferase sensor, 48 h; neutral wells = 0, positive control = 100; activation (reporter increase), % at 12.5 µM; 340,000 compounds, 0.3% hits;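 active = mean replicate activation score at least 90 and every replicate individually at or above 90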;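 note: higher luciferase means less miR-122 activity so hits act as miR-122 inhibitors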
MITF act – increases MITF-driven TRPM1 promoter luciferase signal; activation, % at 12.5 µM; AID 588334; 300,000 compounds, 0.75% hits; SK-MEL-5 TRPM1-promoter luciferase, 24 h; % of positive control, neutral wells = 0;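 active = mean activation of at least 80% with every replicate also reaching 80%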;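 note: 0% = neutral control wells and 100% = parthenolide positive control wells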
Yeast UUG start – modulators of start codon recognition fidelity in yeast. S. cerevisiae UUG-firefly luciferase reporter, luminescence/redox ratio. activity score, % at 18.7 µM. 0.13% of 350,000 active. AID 602363;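 active = replicate mean at a twofold rise or more, about +100% in these data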;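 also: firefly luciferase made from a UUG start codon reports start codon fidelity; reporter light over untreated wells divided by growth signal over untreated wells; some hits fall short of that in this replicate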
PglD DTNB – inhibitors of Campylobacter jejuni PglD acetyltransferase; inhibition, % at 12.5 µM; AID 602405; purified PglD enzyme, DTNB colorimetric CoA detection; 360,000 compounds, 0.098% hits; in the data active = inhibition above about 16%, passing the limit was not always enough
PglD confirm – confirmation of Campylobacter jejuni PglD acetyltransferase inhibitors. shares compounds with PglD DTNB. Purified C. jejuni PglD, DTNB absorbance 412 nm. 320 tested, under 10 active. inhibition, % at 20 µM. AID 743156;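 active = mean inhibition across replicates of at least 20% with every single replicate also at 20% or more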;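 note: initial rate of CoA release by acetyl transfer from AcCoA to the UDP-4-amino sugar; 0% = median of neutral control wells and 100% = median of positive control wells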
Active calls of the source: *; [ ] = dose if it differs, or a comment.

CCOC(=O)c1[nH]c(C)c(C(=O)OCC(=O)N2CCCCC2C)c1C (centres undefined) was read as esBAF inh 6.1, Wnt act -10.9, miR-122 sensor 5.1, MITF act 5.4, Yeast UUG start 23.5, PglD DTNB 23.2* and PglD confirm -1.5.
CCOc1cc(N2CCOCC2)c(OCC)cc1NC(=O)COC(=O)COc1ccc(C#N)cc1 was read as esBAF inh -5.6, Wnt act -0.9, MITF act -4.3, Yeast UUG start 2.5, PglD DTNB 33.3* and PglD confirm -2.3.
Screening CCOc1cc(N2CCOCC2)c(OCC)cc1NC(=O)COC(=O)COc1cc(C)cc(C)c1 returned Wnt act 3.9, miR-122 sensor -5.7, MITF act -0.5, Yeast UUG start -18.8 and PglD DTNB 2.5.
C#CC1CCCCC1NC(=O)Nc1cnccc1C(F)(F)F (centres undefined) was read as esBAF inh -2.5, Wnt act 0.3, miR-122 sensor -3.6, MITF act -0.5, Yeast UUG start -7.5, PglD DTNB 20.1* and PglD confirm -2.2.
C[C@@H]1CN([C@H](C)CO)S(=O)(=O)c2ccc(-c3ccccc3)cc2O[C@@H]1CN(C)S(C)(=O)=O was read as esBAF inh -3.5, miR-122 sensor 17.5[16.7 µM], Yeast UUG start 7.7 and PglD DTNB 0.0.
Cc1c(C(=O)O)sc2nc(/C=C/c3cccc(O)c3)[nH]c(=O)c12 was read as esBAF inh 4.9, Wnt act -1.5, miR-122 sensor -10.7, MITF act -10.2, Yeast UUG start -23.6, PglD DTNB 44.9* and PglD confirm 78.6*.
Screening CCCCNc1cc(=O)oc2ccccc12 returned esBAF inh 12.4, Wnt act -6.4 and miR-122 sensor -3.6.
`COC(CNc1cc(=O)oc2ccccc12)OC` gave esBAF inh -0.7, Wnt act 2.3, miR-122 sensor -5.5, MITF act -8.6, Yeast UUG start -11.4, PglD DTNB 22.8* and PglD confirm 0.5.
C[C@@H]1CN([C@H](C)CO)C(=O)c2cc(NC(=O)Cc3ccccc3)ccc2O[C@@H](C)CCCCO[C@@H]1CN(C)C(=O)c1ccncc1 was read as esBAF inh -2.5, miR-122 sensor 3.7[16.7 µM], Yeast UUG start 17.6 and PglD DTNB -2.2.
`CC(C)Oc1cc(F)ccc1-c1cc(C(=O)NCC2CCCCC2)[nH]n1` gave esBAF inh -6.4, Wnt act -4.3, miR-122 sensor -4.9, Yeast UUG start -9.0, PglD DTNB 22.5* and PglD confirm 11.6.
For Cc1cc(F)ccc1-c1cc(C(=O)NCC2CCCCC2)[nH]n1 the results were esBAF inh 7.7, Wnt act -0.3, miR-122 sensor -1.5, Yeast UUG start -12.1 and PglD DTNB 5.3.
`O=C(C[C@H]1C[C@H]2c3cc(NC(=O)NC4CCCC4)ccc3O[C@H]2[C@@H](CO)O1)NCc1ccc(Cl)cc1` gave esBAF inh 8.1, miR-122 sensor 5.4[16.7 µM], Yeast UUG start -13.2 and PglD DTNB -0.2.
Cc1ccccc1S(=O)(=O)NC(=O)C1(C)CCN1C(=O)CCc1cccs1 (centres undefined) was read as esBAF inh -6.0, Wnt act -2.6, miR-122 sensor 2.8 and PglD DTNB 3.0.
CCCCc1ccc(S(=O)(=O)NC(=O)C2(C)CCN2C(=O)CCc2cccs2)cc1 (centres undefined) was read as esBAF inh 2.1, Wnt act 0.7, miR-122 sensor -23.4, Yeast UUG start 7.6, PglD DTNB 68.9* and PglD confirm 3.3.
COCC(=O)N(C)C[C@@H]1Oc2cc(C#CCC(C)C)ccc2S(=O)(=O)N([C@@H](C)CO)C[C@H]1C was read as esBAF inh -5.9, miR-122 sensor -0.3[16.7 µM], Yeast UUG start -2.6 and PglD DTNB 5.0.
`CNC(=O)CCCc1nc(-c2ccccc2Cl)no1` gave esBAF inh 0.6, miR-122 sensor -0.1, MITF act -4.1, Yeast UUG start -16.8, PglD DTNB 24.4* and PglD confirm -6.0.
`COc1ccc(NC(=O)N(C)C[C@@H]2Oc3ccc(NC(=O)CCCCCC(=O)Nc4ccccc4N)cc3CC(=O)N([C@@H](C)CO)C[C@@H]2C)cc1` gave esBAF inh 7.7, miR-122 sensor -2.2[16.7 µM], Yeast UUG start 1.1 and PglD DTNB -2.8.
Screening CCCOc1ccc(S(=O)(=O)NCCN2CCOCC2)c2ccccc12 returned esBAF inh 3.1, miR-122 sensor 198.9*, MITF act -9.5, Yeast UUG start 1.7, PglD DTNB 22.5* and PglD confirm 1.4.
For COc1c(S(=O)(=O)NCCN2CCOCC2)ccc(Cl)c1Cl the results were esBAF inh 4.6, miR-122 sensor 3.9, MITF act 9.4, Yeast UUG start -14.7 and PglD DTNB -3.6.
For C[C@H](CO)N1C[C@H](C)[C@@H](CN(C)Cc2ccc3c(c2)OCO3)Oc2ccc(NC(=O)Cc3cn(C)c4ccccc34)cc2C1=O the results were esBAF inh 0.9, miR-122 sensor -2.3[16.7 µM], Yeast UUG start 6.7 and PglD DTNB 2.8.

Three successive compounds already listed, for reference:
For Cc1cc(F)ccc1-c1cc(C(=O)NCC2CCCCC2)[nH]n1 the results were esBAF inh 7.7, Wnt act -0.3, miR-122 sensor -1.5, Yeast UUG start -12.1 and PglD DTNB 5.3.
`O=C(C[C@H]1C[C@H]2c3cc(NC(=O)NC4CCCC4)ccc3O[C@H]2[C@@H](CO)O1)NCc1ccc(Cl)cc1` gave esBAF inh 8.1, miR-122 sensor 5.4[16.7 µM], Yeast UUG start -13.2 and PglD DTNB -0.2.
Cc1ccccc1S(=O)(=O)NC(=O)C1(C)CCN1C(=O)CCc1cccs1 (centres undefined) was read as esBAF inh -6.0, Wnt act -2.6, miR-122 sensor 2.8 and PglD DTNB 3.0.

Next part.
CCC(OC(=O)c1ccco1)C(=O)NCc1ccc(C)cc1 (centres undefined) was read as esBAF inh 2.3, miR-122 sensor -7.9, MITF act -2.7, Yeast UUG start -19.3 and PglD DTNB 0.8.
Screening CCC(OC(=O)c1ccco1)C(=O)NCc1ccc2c(c1)OCO2 (centres undefined) returned esBAF inh 0.5, Wnt act -1.0, miR-122 sensor -1.8, MITF act 5.7, Yeast UUG start -2.2, PglD DTNB 22.2* and PglD confirm 3.3.
CN(C)c1nc(OCC(=O)NC(C)(C)C)nc(N(C)C)n1 was read as esBAF inh -9.0, miR-122 sensor 4.5, MITF act 19.5, Yeast UUG start 5.0, PglD DTNB 21.8* and PglD confirm 1.4.
CCOc1nc(-c2ccccc2)ccc1-c1noc(-c2cccs2)n1 was read as esBAF inh 0.0, miR-122 sensor 7.7, MITF act 3.2, Yeast UUG start -19.1, PglD DTNB 21.4* and PglD confirm -8.7.
`CCN(CC)S(=O)(=O)c1ccc(NS(=O)(=O)c2cccc(C)c2)cc1` gave esBAF inh 4.6, Wnt act 39.5*, miR-122 sensor 51.9, MITF act 1.5, Yeast UUG start -15.4, PglD DTNB 24.9* and PglD confirm -0.3.
`C[C@@H]1CN([C@@H](C)CO)C(=O)c2cc(NC(=O)Nc3ccc4c(c3)OCO4)ccc2O[C@@H]1CN(C)Cc1ccc(-c2ccccc2)cc1` gave esBAF inh 0.8, miR-122 sensor 0.9[16.7 µM], Yeast UUG start -2.3 and PglD DTNB 1.6.
